Values quoted from earlier work in patent US9211291B2, “Treatment regimen utilizing neratinib for breast cancer” (WYETH LLC, priority 2009, dated 2015).
Where “and” joins values, the source holds several entries; their conditions need not be identical. Equal values may be shown once. Read-outs that look alike come from different tables or passages of the source.

Tested on: HER2-positive breast cancer
Details: cited from earlier work

For “trastuzumab: humanized monoclonal antibody that selectively binds to the human erbB-2 receptor”, the disease-free-survival rate (at four years, Perez et al. 2007 and Slamon et al. 2006) is listed as 85.9% and 82% and the disease-free-survival rate (at three years, Smith et al. Lancet 2007) is listed as 80.6%.
